Measurements taken from patent publication US7736646B2, “Methods for modulating angiogenesis with apelin compositions” (Arizona Board of Regents on behalf of the University of …, priority 2003, dated 2010).

Test system: frog embryos
Test: Growth factor-soaked beads implanted in frog embryos, vascular outgrowth by erg in situ hybridization
Settings: beads soaked in apelin peptide 0.1 mg/ml, mutated apelin peptide 0.25 mg/ml, BSA 1 mg/ml or rm VEGF-164 0.25 mg/ml; implanted stage 24-26, assayed stage 35-37
Method: Beads were microsurgically implanted in an avascular region, the posterior lateral mesoderm, of stage 24-26 embryos. Embryos were cultured in 0.2×MMR until stage 35-37, at which time they were prepared for whole mount in situ hybridization analysis as described in Example 2. The embryonic vascular system was visualized using an antisense probe directed against transcripts encoding the Xenopus vascular marker, erg (Baltzinger et al., 1999, Dev. Dyn. 216:420-33).

Substance: apelin-13
- outgrowth of developing blood vessels toward soaked beads: outgrowth of developing blood vessels toward the apelin-soaked beads
